IL2 activator = activators of IL-2; IL-2 activation reporter assay, cell-based qHTS; stimulated with anti-CD3/CD4/CD28 beads; in transgenic mouse T cells; actives 0.065% (n = 360,000); activation, % (series mostly up to about 46 µM); in the data active = activation above about 50%; inconclusive = mostly about 30% to 49%; note: 0% is about no effect
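Unstimulated transgenic mouse T cells preincubated 60 min with compound, then stimulated with anti-CD3/anti-CD4-coated beads plus anti-CD28 for 18 h at 37 degrees C. IL-2 response read as EGFP and DsRed fluorescence by plate cytometry.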
A549 viability = counter-screen for Nrf2 inhibitors: cytotoxicity in A549 cells | A549 ARE-Fluc cells, CellTiter-Fluor viability, 18-24 h | Potency, µM (doses to about 46 µM), for inactives: at the top dose activity change, negative = cytotoxicity, most hits filed as inhibitors | actives 0.16% (n = 390,000) | AID 504648; note: potency is the fitted concentration of half-maximal effect; % is set by controls: 0 for no effect and ±100 for the full control effect
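Cytotoxicity counterscreen: CellTiter-Fluor fluorescence was measured in A549 ARE_Fluc cells after 18-24 h of compound exposure in a concentration series. The subsequent BugLite luminescent read reports ARE-luciferase activity.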
ClpP mod = qHTS Assay for Activators of ClpP; ATP-dependent Clp protease proteolytic subunit (Bacillus subtilis (strain 168)), P80244; purified B. subtilis ClpP, FRET peptide cleavage, 20 min; Potency, µM (series often up to 57.5 µM), inactives show at the top dose activity change, negative = active; actives 1.9% (n = 340,000); AID 651965, 2013; active = well fitted falling curve with a large enough effect; inconclusive = small, poorly fitted or top-dose-only effect; inactive = no such curve, though single readings can be large or run the other way; note: potency is the fitted concentration of half-maximal effect; the source files actives as falling curves though it sought activators and does not explain the sign; nearly all actives have a fitted effect of over 65% in size
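FRET quenching reversal measured ClpP activation: 10 microg/mL B. subtilis ClpP at pH 8 with the FRET-FV decapeptide, read at 430 nm after 320 nm excitation. The 20-min minus 0-min signal was scaled between DMSO/no-enzyme wells and ADEP (5.8 microM final).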
miR-21 FLuc = miR-21 reporter, rising signal. HeLa miR-21 FLuc reporter, luciferase, 48 h. Potency, µM (titrated, usually from 38.3 µM), without a hit: at the top dose reporter change, positive = more light. 340,000 tested, under 10 active. AID 2288; active = well fitted rising curve with a large enough effect; inconclusive = small, poorly fitted or top-dose-only effect; inactive = no such curve, though single readings can be large or run the other way;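 also: % of control where 0% means no effect; miR-21 action dims this reporter so a rising signal means less miR-21 action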
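Compounds were titrated across several concentrations (up to approximately 40 uM) and incubated 48 hours with HeLa miR-21-FLuc reporter cells (miR-21 target sequence downstream of FLuc, endogenous miR-21). Readout was firefly luciferase luminescence after lytic detection reagent.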
Nrf2 activator = activates Nrf2 signaling; AREc32 ARE-luciferase reporter (MCF7-derived line), luminescence, 24 h; Potency, µM (series often up to 46.1 µM), for the others: at the top dose activation, hits mostly activators; actives 0.31% (n = 410,000); AID 624171; note: potency is the fitted concentration of half-maximal effect; % of control where 0% means no effect; nearly all actives have a fitted effect of over 65% in size
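ARE-driven firefly luciferase activity in AREc32 cells measured after a 24 hr compound exposure at 37 deg C, using Steady-Glo reagent and a 30 min room-temperature hold.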
Nrf2 block = blocks Nrf2 signaling; A549 ARE-Fluc reporter, luciferase luminescence, 18-24 h; Potency, µM (highest dose often 46 µM), inactives show at the top dose activity change, negative = inhibition, most hits filed as inhibitors; actives 2.1% (n = 360,000); note: potency is the fitted concentration of half-maximal effect; % is set by controls: 0 for no effect and ±100 for the full control effect; nearly all actives have a fitted effect of over 60% in size
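Two sequential reads on A549 ARE_Fluc cells exposed to compound for 18-24 h: a CellTiter-Fluor fluorescence read for viability, then a luciferase luminescence read for Nrf2/ARE activity.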
* marks the source's active call; other numbers are inactive results; i = inactive; u = inconclusive; x = no result given. Sampled rows, rich in hits. Any-hit rate of the full collection: about 3.7%. Unless noted, calls come from the whole dose curve; as a rule, active = well fitted curve in the direction sought with a large enough effect; inconclusive = small, poorly fitted or top-dose-only effect, or another doubt; inactive = no such curve, though single readings can be large; an effect the other way counts as inactive or inconclusive.

Protein sequences, listed by entry. Tags and fused reporters are not part of them.
ATP-dependent Clp protease proteolytic subunit (Bacillus subtilis (strain 168)), P80244, UniProt P80244, whole entry, looked up: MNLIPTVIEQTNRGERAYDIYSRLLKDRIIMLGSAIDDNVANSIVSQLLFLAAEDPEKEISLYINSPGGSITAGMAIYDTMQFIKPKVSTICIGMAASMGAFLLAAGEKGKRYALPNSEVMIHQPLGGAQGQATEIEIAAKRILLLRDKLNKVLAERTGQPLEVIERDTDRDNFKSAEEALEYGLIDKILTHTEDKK

Order of values – ClpP mod	miR-21 FLuc	IL2 activator	Nrf2 block	Nrf2 activator	A549 viability
Cc1cc(Nc2cccc(Cl)c2)nc2ccc(NC(=O)c3ccc(F)cc3Cl)cc12
 : 28µM*	28%	x	u	0%	-19%
Cc1cc(Nc2cccc(C(F)(F)F)c2)nc2ccc(NC(=O)c3cccc(Cl)c3)cc12
 : u	25%	x	26µM*	-2%	18µM*
Cc1cc(Nc2cccc(Cl)c2)nc2ccc(NC(=O)Cc3cccc(C(F)(F)F)c3)cc12
 : 4%	u	x	u	-2%	u
Cc1cc(C)cc(NC(=O)N2CCC(CN3CCCCCC3)CC2)c1
 : 1%	0%	x	4%	-1%	-4%
Cc1ccc(NS(=O)(=O)c2ccc3c(ccn3C)c2)cc1C
 : x	x	x	u	x	5%
Cc1cc2c(s1)c1cnn(Cc3c(Cl)cccc3Cl)c(=O)c1n2C
 : x	x	x	4%	x	-7%
O=C(Cc1ccccc1)Nc1ccc2oc(=O)ccc2c1
 : -1%	-7%	0	-4%	0%	8%
O=C(Nc1ccc(Oc2ccc3ccccc3c2)cc1)c1ccco1
 : 16µM*	10%	0	u	1%	-3%
O=C(Nc1ccc2oc(=O)ccc2c1)c1ccco1
 : 28µM*	-36%	0	0%	16%	0%
CCCc1nc2oc3ccccc3c(=O)c2c(=O)n1-c1ccc(C)cc1
 : 2%	-52%	1	u	11µM*	0%
CCc1nc2oc3ccccc3c(=O)c2c(=O)n1-c1ccc(C)cc1
 : x	-68%	0	i	u	-6%
CCn1cc2nc(SCc3cc(C)ccc3C)n(Cc3ccc(C)cc3)c(=O)c2n1
 : -5%	4%	x	-22%	0%	-28%
CCN(CC(=O)Nc1c(F)cccc1F)C(=O)c1cn2ccccc2n1
 : u	x	-1	3%	-1%	-4%
CCCN(CC(=O)Nc1ccccc1C)C(=O)c1cn2ccccc2n1
 : 32µM*	x	3	5%	0%	-7%
COc1cccc(-c2cc(C(=O)Nc3ccc(F)cc3)[nH]n2)c1
 : 6%	-48%	x	2.6µM*	7%	6%
COc1cccc(-c2cc(C(=O)Nc3ccc(Br)c(C)c3)[nH]n2)c1
 : -2%	-23%	x	19%	0%	2%
Cc1ccc([N+](=O)[O-])cc1S(=O)(=O)N1CCn2cccc2C1c1ccccc1F (stereo unspecified)
 : -3%	1%	x	x	0%	0%
Cc1ccc(NC(=O)c2ccc(CNS(=O)(=O)c3ccc4c(c3)C(C)(C)C(=O)N4C)cc2)cc1
 : 2%	-10%	x	0%	5%	3%
COc1ccc(NC(=O)c2ccc(CNS(=O)(=O)c3ccc4c(c3)C(C)(C)C(=O)N4C)cc2)cc1
 : 3%	-12%	x	-10%	2%	-1%
Cc1ccc(NC(=O)c2ccc(CNS(=O)(=O)c3ccc4c(c3)C(C)(C)C(=O)N4C)cc2)cc1F
 : -1%	u	x	23µM*	0%	-19%

Single entries from the list.
Cc1cc(Nc2cccc(C(F)(F)F)c2)nc2ccc(NC(=O)c3cccc(Cl)c3)cc12 | Nrf2 block: 26µM*
Cc1cc(Nc2cccc(Cl)c2)nc2ccc(NC(=O)c3ccc(F)cc3Cl)cc12 | Nrf2 activator: 0%
Cc1ccc(NS(=O)(=O)c2ccc3c(ccn3C)c2)cc1C | A549 viability: 5%

Sorted by the number under ClpP mod (descending): 3 of the compounds above.
molecule	ClpP mod
CCCN(CC(=O)Nc1ccccc1C)C(=O)c1cn2ccccc2n1	32µM*
O=C(Nc1ccc2oc(=O)ccc2c1)c1ccco1	28µM*
O=C(Nc1ccc(Oc2ccc3ccccc3c2)cc1)c1ccco1	16µM*

Complete entries, quoted from the list. Screens in order: ClpP mod, miR-21 FLuc, IL2 activator, Nrf2 block, Nrf2 activator, A549 viability
`COc1cccc(-c2cc(C(=O)Nc3ccc(F)cc3)[nH]n2)c1` in the list: 6%, -48%, x, 2.6µM*, 7%, 6%
`Cc1cc(Nc2cccc(C(F)(F)F)c2)nc2ccc(NC(=O)c3cccc(Cl)c3)cc12` in the list: u, 25%, x, 26µM*, -2%, 18µM*

Remaining list, next part.
Order of values – ClpP mod	miR-21 FLuc	IL2 activator	Nrf2 block	Nrf2 activator	A549 viability
CCc1cccc(NC(=O)c2ccc(CNS(=O)(=O)c3ccc4c(c3)C(C)(C)C(=O)N4C)cc2)c1
 : -4%	u	x	16µM*	-1%	-21%
Cc1oc2c(C)c3oc(=O)c(CCC(=O)N4CCCCC4)c(C)c3cc2c1C
 : u	10%	x	2%	1%	3%
Cc1nc(-c2ccc(S(=O)(=O)NCc3ccc(OC(C)C)cc3)cc2)co1
 : -3%	4%	x	x	3%	-4%
CCOc1ccccc1-c1nc(C(N)=O)c2c(n1)n(-c1ccc3c(c1)OCO3)c(=O)n2C
 : -9%	-3%	x	x	-1%	3%
O=C(NCC(c1ccco1)N1CCc2ccccc2C1)c1ccc(Br)cc1 (stereo unspecified)
 : 25µM*	x	0	-1%	4%	1%
O=S(=O)(c1c(Cl)cc(Br)cc1Cl)N1CCN(C(=S)NC2CC2)CC1
 : x	x	-1	12µM*	3%	-20%
O=S(=O)(c1ccccc1)N1CCN(C(=S)NC2CCCC2)CC1
 : -2%	-3%	0	6%	0%	u
CCSc1nc2n(n1)C(c1ccc(C(=O)O)cc1)C(C(=O)Nc1ccccc1C)=C(C)N2 (stereo unspecified)
 : -1%	-1%	x	x	-2%	8%
O=C(NCCOCCn1c(=O)oc2ccccc21)Nc1cccc(Cl)c1
 : 1%	19%	x	u	1%	5%
O=S(=O)(Nc1nc2ccccc2nc1N1CCN(c2ccccc2)CC1)c1ccc(F)cc1
 : -11%	-21%	0	26µM*	-1%	u
Cc1cccc(C)c1NC(=O)C(=O)NCC(c1cccnc1)N1CCc2ccccc21 (stereo unspecified)
 : -3%	-4%	x	23%	1%	0%
O=C(O)c1cc(F)c(S(=O)(=O)N2CCN(S(=O)(=O)c3ccc4c(c3)OCCO4)CC2)cc1F
 : x	x	x	u	x	-3%
CC(C)(C)c1cc(C(=O)N/N=C/c2ccc(O)cc2)n(-c2ccccc2)n1
 : 32µM*	-2%	-1	u	7%	u
CCc1cc(C(=O)N/N=C/c2ccc(O)cc2)c2ccccc2n1
 : x	16%	1	u	0%	4%
O=c1cc(CN2CCN(c3ccccc3F)CC2)c2c(ccc3ccccc32)o1
 : 28µM*	x	-1	x	0%	x
CN1CC(c2ccccc2)C2(SC(=S)N(Cc3ccco3)C2=O)C12C(=O)Nc1ccccc12 (stereo unspecified)
 : -3%	u	-3	12µM*	3%	u
CN1CC(c2ccccn2)C2(SC(=S)N(Cc3ccccc3)C2=O)C12C(=O)Nc1ccccc12 (stereo unspecified)
 : -6%	19%	-2	23µM*	2%	0%
CCCCc1c(C)nc2c(OC)cccc2c1SCCC(=O)O
 : 32µM*	1%	-2	-18%	7%	1%
O=C(c1ccc(N2CCN(C(=O)c3ccccc3Br)CC2)cc1)c1cccc(F)c1
 : -16%	-2%	-3	21µM*	0%	-22%
O=C(NCCCN1CCCC1=O)c1cccc(NS(=O)(=O)c2ccccc2)c1
 : 35µM*	x	-2	-1%	0%	-5%
CC1CCCN(S(=O)(=O)c2cccc(C(=O)NCCCN3CCCC3=O)c2)C1 (stereo unspecified)
 : -3%	x	0	x	0%	x
O=C(NCCCN1CCCC1=O)c1cccc(S(=O)(=O)N2CCN(c3ccccc3)CC2)c1
 : 16µM*	2%	-3	u	0%	1%
COC(=O)c1scc(-c2ccc(C)cc2)c1S(=O)(=O)N1CCN(c2ccc(C(C)=O)cc2)CC1
 : -2%	12%	x	-27%	6%	5%

Bioassay records deposited in PubChem BioAssay by National Center for Advancing Translational Sciences (NCATS).
